Drawing on patent publication US20040106802A1, “Novel compounds and therapeutic uses thereof” (TORRENT PHARMACEUTICALS LTD., priority 2002, published 2004), this text covers IC50 for ten molecules.

Chains of the proteins cited; added tags and fusions are not shown. Lines headed by an entry give the natural chain unless they say otherwise; changes in a name come on top.
UniProt P22411: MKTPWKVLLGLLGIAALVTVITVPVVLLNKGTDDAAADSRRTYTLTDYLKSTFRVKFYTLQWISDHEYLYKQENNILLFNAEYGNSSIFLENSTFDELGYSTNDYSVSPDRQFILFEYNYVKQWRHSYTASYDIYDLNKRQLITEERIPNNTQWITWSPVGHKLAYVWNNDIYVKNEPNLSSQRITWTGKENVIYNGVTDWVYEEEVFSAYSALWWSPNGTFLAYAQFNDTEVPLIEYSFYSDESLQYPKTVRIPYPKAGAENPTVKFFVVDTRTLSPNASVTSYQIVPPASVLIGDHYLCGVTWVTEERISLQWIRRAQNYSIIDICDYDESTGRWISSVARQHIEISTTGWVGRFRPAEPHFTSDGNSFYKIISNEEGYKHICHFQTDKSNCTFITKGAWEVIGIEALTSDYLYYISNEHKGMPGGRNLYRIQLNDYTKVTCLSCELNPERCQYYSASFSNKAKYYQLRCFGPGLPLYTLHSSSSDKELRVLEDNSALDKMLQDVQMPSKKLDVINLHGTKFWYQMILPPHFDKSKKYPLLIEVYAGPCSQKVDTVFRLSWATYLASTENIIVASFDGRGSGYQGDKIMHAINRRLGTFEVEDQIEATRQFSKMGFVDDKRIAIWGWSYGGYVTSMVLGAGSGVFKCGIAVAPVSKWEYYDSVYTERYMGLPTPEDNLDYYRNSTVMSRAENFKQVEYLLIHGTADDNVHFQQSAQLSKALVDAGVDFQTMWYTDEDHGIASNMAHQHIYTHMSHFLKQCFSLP

Counter-ions that a name gives are not always drawn.

The first experiment has as its target T1, Porcine DPP-IV (Sus scrofa, UniProt P22411).
T1 construct: purchased Sigma-Aldrich Germany
In words: Assay of DPP-IV enzyme inhibitory activity (spectrophotometric, Gly-Pro-pNA cleavage). In kind it is biochemical. Particulars: Porcine DPP-IV, Gly-Pro-pNA substrate, 30° C.; mean ± SD of three experiments except compound Nos. 133 & 139; read-out: IC50 (μM) Mean ± SD, inhibitory activity on DPP-IV enzyme activity. The method, then:
Assay of DPP-IV Enzyme Inhibitory Activity.
The assay method is a modified method (as described by Welch et al, 1998) based on spectrophotometric determination of the product formed by penultimate proline cleaving activity of the enzyme.
Assay protocol involves incubation of the enzyme dipeptidyl peptidase IV with the test substance at 30° C. for 30 min followed by addition of this reaction mixture to the substrate Gly-Pro-pNA that was equilibrated at 30° C. for 2 min. The enzyme cleaves the substrate at penultimate proline and releases p-nitroanilide, the optical density of which is measured at 385 nm. The formation of p-nitroanilide will be reduced in the presence of inhibitor. […] The activity of molecule is expressed in terms of % inhibition. At least three different concentrations were tried out for each of the test substances. The percentage inhibitions for each of the concentrations were plotted and an IC50 of the test compound was worked out. The enzyme inhibitory activity of different test compounds were compared based on the IC50 values.
The percentage inhibition % I, is calculated using the formula:
% I=[(1−vi/v0)]*100 where vi and v0 are the Vmax values with and without the test substance, respectively.
Substrate solution: 0.5 mM in 45 mM phosphate buffer
Substrate used: Gly-Pro-p-nitroanilide (Source: Sigma-Aldrich Co. Germany)
3.288 mg substrate in 1 ml 45 mM phosphate buffer was prepared as stock solution. 0.25 ml of this stock solution was diluted to 5 ml to get 0.5 mM substrate solution (90 μl to be added in each well). The stock solution of the substrate was used within three days of preparation.
Enzyme solution: Porcine DPP-IV (Sigma-Aldrich Germany) was used throughout the study. 0.4 mU in 80 μl of Tris. HCl buffer was prepared. Fresh solutions were prepared everyday for the assays.
Various concentrations of inhibitor were used: 0.391 μM, 0.781 μM, and 3.125 μM. Solutions of inhibitor were prepared and used on the same day.
Different concentrations of inhibitor (compound 95), vehicle, substrate and enzyme were prepared as per standard procedures. 280 μl of enzyme solution (0.4-mU/80 μl in Tris HCl buffer) was added to the eppendorf containing 70 μl solution of inhibitor or vehicle and mixed. This reaction mixture was incubated for 30 min at 30° C. The 96 well plate containing substrate solution was thermally equilibrated in the spectrophotometer for 2 min at 30° C. Later 100 μl of the enzyme-inhibitor pre-incubation solution was added to respective wells in a 96 well plate. Each concentration of the inhibitor was tested in triplicates.
The rate of change in UV absorbance (in presence of various concentrations of the inhibitor) was measured at 385 nm, with respect to wells containing only 0.5 mM substrate in 45 mM phosphate buffer as blank at every 10 min for 2 hours after adding enzyme-inhibitor mixture to wells containing substrate solution.
Usually IC50 stands for the concentration that gives 50% inhibition. As to `N#Cc1ccc(CN2CCC(N(N)CC(=O)N3CSCC3C#N)CC2)cc1` (centres unmarked) [Compound No. 52, 3-[1-Oxo-2-(1-(1-(4-cyanophenylmethyl)-piperidin-4-yl) hydrazino)]ethyl-4-cyanothiazolidine bis trifluoroacetate], the concentration for half-maximal inhibition (IC50) was determined as 0.71 ± 0.06 µM.

For the molecule `N#CC1CSCN1C(=O)CN(N)C1CCN(CC(=O)Nc2ccc3c(c2)OCCO3)CC1` (centres unmarked) [Compound No. 104, 3-[1-oxo-2-[1-(1-(2-oxo-2(2,3dihydrobenzo(1,4)dioxan-6-yl)aminoethyl)piperidin-4-yl)]hydrazino]ethyl-4-cyano-thiazolidine bis-trifluoroacetate], the IC50 was found to be 0.222 ± 0.023 µM.

As for `N#CC1CSCN1C(=O)CN(N)C1CCN(CC(=O)Nc2ccc(Cl)cc2)CC1` (centres unmarked) [Compound No. 105, 3-[1-oxo-2-[1-(1-(2-oxo-2(4-chlorophenyl)aminoethyl)piperidin-4-yl)]hydrazino]ethyl-4-cyanothiazolidine bis-trifluoroacetate], the half-inhibitory concentration (IC50) turned out to be 0.258 ± 0.027 µM.

Take `N#C[C@H]1CSCN1C(=O)CN(N)C1CCN(CC(=O)Nc2ccc(Cl)cn2)CC1` [compound 116, 3-[1-oxo-2-(1-(1-(2-oxo-2-(5-chloropyridin-2-yl)aminoethyl)piperidin-4-yl)) hydrazino]ethyl(s)-(+)-4-cyanothiazolidine tris-trifluoroacetate]: the IC50 amounted to 4.1 ± 0.4 µM.

`N#CC1CSCN1C(=O)CN(N)C1CCN(CC(N)=O)CC1` (centres unmarked) [compound 118]: the IC50 turned out to be 0.817 ± 0.04 µM.

Take `N#CC1CSCN1C(=O)CN(N)C1CCN(CC(=O)Nc2cccnc2Cl)CC1` (centres unmarked) [compound 121]: the IC50 worked out at 0.119 ± 0.015 µM.

With `N#CC1CSCN1C(=O)CN(N)C1CCN(CC(=O)NCCc2cccs2)CC1` (centres unmarked) [compound 127, 3-[1-oxo-2-(1-(1-(2-oxo-2-(2-(thiophene-2-yl)ethyl)aminoethyl)piperidine-4-yl))hydrazino]ethyl-4-cyanothiazolidine, bis-trifluoroacetate], the IC50 is 0.415 ± 0.03 µM.

As for `N#CC1CSCN1C(=O)CN(N)C1CCN(C(=O)Cc2cccnc2)CC1` (centres unmarked) [compound 137, 3-[1-oxo-2-(1-(1-(3-pyridylacetyl)piperidine-4-yl))hydrazino]ethyl-4-cyanothiazolidine, bis-trifluoroacetate], the IC50 was determined as 0.667 ± 0.062 µM.

In the case of `N#CC1CSCN1C(=O)CN(N)C1CCN(CC(=O)Nc2cccnc2Cl)CC1` (centres unmarked) [compound 141, 3-[1-oxo-2-(1-(1-(2-oxo-2-(2-chloropyridin-3-yl)aminoethyl)piperidin-4-yl))hydrazino]ethyl-4-cyano thiazolidine, trihydrochloride], the IC50 worked out at 0.144 ± 0.003 µM.

Regarding `N#CC1CSCN1C(=O)CN(N)C1CCN(CC(=O)Nc2ccc(Cl)cc2)CC1` (centres unmarked) [compound 143, 3-[1-oxo-2-(1-(1-(2-oxo-2-(4-chlorophenyl)aminoethyl)piperidin-4-yl))ydrazino]ethyl-4-cyano thiazolidine, dihydrochloride], the IC50 was 0.547 ± 0.045 µM.

The experiment is the same for the next values; noted with them: read-out: dipeptidyl peptidase-IV inhibitory IC50's in the range.
As for `N#CC1CSCN1C(=O)CN(N)C1CCN(CC(=O)Nc2ccc3c(c2)OCCO3)CC1` (centres unmarked) [Compound No. 104, 3-[1-oxo-2-[1-(1-(2-oxo-2(2,3dihydrobenzo(1,4)dioxan-6-yl)aminoethyl)piperidin-4-yl)]hydrazino]ethyl-4-cyano-thiazolidine bis-trifluoroacetate], the IC50 is 0.088 to 0.25 µM.
